The target in experiment [1] is T1, Potassium voltage-gated channel subfamily A member 3 (Homo sapiens, UniProt P22001). Further details: species or system Blood.
For experiment [2], the target named is T1, Potassium voltage-gated channel subfamily A member 3. As to the kind of experiment: cell-based. Details: species or system Blood.
Experiment [3] shares this target. It is filed as cell-based, CHO-K1.

By UniProt entry, the sequences of proteins in these tests, tags left out.
UniProt P22001, whole entry: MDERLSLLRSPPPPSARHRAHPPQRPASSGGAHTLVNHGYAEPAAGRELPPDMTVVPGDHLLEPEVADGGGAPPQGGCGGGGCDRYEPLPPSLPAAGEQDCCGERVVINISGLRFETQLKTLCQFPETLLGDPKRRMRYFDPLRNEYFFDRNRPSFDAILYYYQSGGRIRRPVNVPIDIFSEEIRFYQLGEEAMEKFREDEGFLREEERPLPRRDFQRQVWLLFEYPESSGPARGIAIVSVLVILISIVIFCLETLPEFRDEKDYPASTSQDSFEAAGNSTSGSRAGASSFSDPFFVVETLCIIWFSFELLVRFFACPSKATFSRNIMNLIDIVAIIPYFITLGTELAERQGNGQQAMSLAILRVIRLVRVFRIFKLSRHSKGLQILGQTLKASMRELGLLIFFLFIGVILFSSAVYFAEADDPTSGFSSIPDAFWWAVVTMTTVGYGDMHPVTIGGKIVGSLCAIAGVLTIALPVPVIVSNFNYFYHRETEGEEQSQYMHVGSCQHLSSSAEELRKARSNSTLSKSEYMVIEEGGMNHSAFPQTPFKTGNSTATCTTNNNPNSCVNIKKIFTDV

For orientation: IC50 means the concentration needed to halve the response being measured. Higher therefore signals weaker potency in that assay.

Molecules are shown by their SMILES.

On to `CC[C@H](C)[C@@H]1NC(=O)[C@@H](NC(=O)[C@H](CO)NC(=O)[C@@H](N)CCCNC(=N)N)CSSC[C@@H](C(=O)O)NC(=O)[C@H]([C@@H](C)O)NC(=O)CNC(=O)[C@@H]2CSSC[C@@H]3NC(=O)[C@H](CCC(N)=O)NC(=O)[C@H](Cc4ccccc4)NC(=O)[C@H](C)NC(=O)[C@H](Cc4cccc5ccccc45)NC(=O)[C@H](CSSC[C@H](NC(=O)[C@H](Cc4ccccc4)NC(=O)[C@H](CO)NC(=O)[C@H](CC(C)C)NC(=O)[C@H](CCCNC(=N)N)NC(=O)[C@H](Cc4ccc(O)cc4)NC(=O)[C@H](CCCCN)NC(=O)[C@H](CCSC)NC(=O)[C@H](CO)NC(=O)[C@H](Cc4cnc[nH]4)NC(=O)[C@H](CCCCN)NC3=O)C(=O)N[C@@H](CCCNC(=N)N)C(=O)N[C@@H](CCCCN)C(=O)N[C@@H]([C@@H](C)O)C(=O)N2)NC(=O)[C@H](CCCNC(=N)N)NC(=O)[C@H](CO)NC(=O)[C@H](CCCCN)NC(=O)[C@@H]2CCCN2C(=O)[C@H]([C@@H](C)CC)NC(=O)[C@H]([C@@H](C)O)NC(=O)[C@H](CC(=O)O)NC1=O`, for which the IC50 in experiment [1] was 4860 pM; in experiment [2], 3560 pM.
As to `CC[C@H](C)[C@@H]1NC(=O)[C@@H](NC(=O)[C@H](CO)NC(=O)[C@@H](N)CCCNC(=N)N)CSSC[C@@H](C(=O)O)NC(=O)[C@H]([C@@H](C)O)NC(=O)CNC(=O)[C@@H]2CSSC[C@@H]3NC(=O)[C@H](C)NC(=O)[C@H](Cc4ccccc4)NC(=O)[C@H](C)NC(=O)[C@H]([C@@H](C)O)NC(=O)[C@H](CSSC[C@H](NC(=O)[C@H](Cc4ccccc4)NC(=O)[C@H](CO)NC(=O)[C@H](CC(C)C)NC(=O)[C@H](CCCNC(=N)N)NC(=O)[C@H](Cc4ccc(O)cc4)NC(=O)[C@H](CCCCN)NC(=O)[C@H](CCSC)NC(=O)[C@H](CO)NC(=O)[C@H](Cc4cnc[nH]4)NC(=O)[C@H](CCCCN)NC3=O)C(=O)N[C@@H](CCCNC(=N)N)C(=O)N[C@@H](CCCCN)C(=O)N[C@@H]([C@@H](C)O)C(=O)N2)NC(=O)[C@H](CCCNC(=N)N)NC(=O)[C@H](CO)NC(=O)[C@H](CCCCN)NC(=O)[C@@H]2CCCN2C(=O)[C@H]([C@@H](C)CC)NC(=O)[C@H]([C@@H](C)O)NC(=O)[C@H](CC(=O)O)NC1=O`, the IC50 in experiment [1] turned out to be 90 pM; in experiment [2], 54 pM.
Regarding `CC[C@H](C)[C@@H]1NC(=O)[C@@H](NC(=O)[C@H](CO)NC(=O)[C@@H](N)CCCNC(=N)N)CSSC[C@@H](C(=O)O)NC(=O)[C@H]([C@@H](C)O)NC(=O)CNC(=O)[C@@H]2CSSC[C@@H]3NC(=O)[C@H](CCC(N)=O)NC(=O)[C@H](Cc4ccccc4)NC(=O)[C@H](C)NC(=O)[C@H]([C@@H](C)O)NC(=O)[C@H](CSSC[C@H](NC(=O)[C@H](Cc4ccccc4)NC(=O)[C@H](CO)NC(=O)[C@H](CC(C)C)NC(=O)[C@H](CCC(=O)O)NC(=O)[C@H](Cc4ccc(O)cc4)NC(=O)[C@H](CCCCN)NC(=O)[C@H](CCSC)NC(=O)[C@H](CO)NC(=O)[C@H](Cc4cnc[nH]4)NC(=O)[C@H](CCCCN)NC3=O)C(=O)N[C@@H](CCCNC(=N)N)C(=O)N[C@@H](CCCCN)C(=O)N[C@@H]([C@@H](C)O)C(=O)N2)NC(=O)[C@H](CCCNC(=N)N)NC(=O)[C@H](CO)NC(=O)[C@H](CCCCN)NC(=O)[C@@H]2CCCN2C(=O)[C@H]([C@@H](C)CC)NC(=O)[C@H]([C@@H](C)O)NC(=O)[C@H](CC(=O)O)NC1=O`, the results for the 50% inhibitory concentration (IC50) in experiment [1] and in experiment [2] were 4070 pM and 1110 pM, respectively.
In the case of `CC[C@H](C)[C@@H]1NC(=O)[C@@H](NC(=O)[C@H](CO)NC(=O)[C@@H](N)CCCNC(=N)N)CSSC[C@@H](C(=O)O)NC(=O)[C@H]([C@@H](C)O)NC(=O)CNC(=O)[C@@H]2CSSC[C@@H]3NC(=O)[C@H](CCC(N)=O)NC(=O)[C@H](Cc4ccccc4)NC(=O)[C@H](C)NC(=O)[C@H]([C@@H](C)O)NC(=O)[C@H](CSSC[C@H](NC(=O)[C@H](Cc4ccccc4)NC(=O)[C@H](CO)NC(=O)[C@H](CC(C)C)NC(=O)[C@H](CCCNC(=N)N)NC(=O)[C@H](Cc4ccc(O)cc4)NC(=O)[C@H](CCCCN)NC(=O)[C@H](CCSC)NC(=O)[C@H](CO)NC(=O)[C@H](Cc4cnc[nH]4)NC(=O)[C@H](CCCCN)NC3=O)C(=O)N[C@@H](CCCNC(=N)N)C(=O)N[C@@H](CCCCN)C(=O)N[C@@H]([C@@H](C)O)C(=O)N2)NC(=O)[C@H](C)NC(=O)[C@H](CO)NC(=O)[C@H](CCCCN)NC(=O)[C@@H]2CCCN2C(=O)[C@H]([C@@H](C)CC)NC(=O)[C@H]([C@@H](C)O)NC(=O)[C@H](CC(=O)O)NC1=O`, the IC50 in experiment [1] came out at 2150 pM; in experiment [2] it was 881 pM.
Take `CC[C@H](C)[C@@H]1NC(=O)[C@@H](NC(=O)[C@H](CO)NC(=O)[C@@H](N)CCCNC(=N)N)CSSC[C@@H](C(=O)O)NC(=O)[C@H]([C@@H](C)O)NC(=O)[C@H](CCCCN)NC(=O)[C@@H]2CSSC[C@@H]3NC(=O)[C@H](CCC(N)=O)NC(=O)[C@H](Cc4ccccc4)NC(=O)[C@H](C)NC(=O)[C@H]([C@@H](C)O)NC(=O)[C@H](CSSC[C@H](NC(=O)[C@H](Cc4ccccc4)NC(=O)[C@H](CO)NC(=O)[C@H](CC(C)C)NC(=O)[C@H](CCCNC(=N)N)NC(=O)[C@H](Cc4ccc(O)cc4)NC(=O)[C@H](CCCCN)NC(=O)[C@H](CCSC)NC(=O)[C@H](CO)NC(=O)[C@H](Cc4cnc[nH]4)NC(=O)[C@H](CCCCN)NC3=O)C(=O)N[C@@H](CCCNC(=N)N)C(=O)N[C@@H](CCCCN)C(=O)N[C@@H]([C@@H](C)O)C(=O)N2)NC(=O)[C@H](CCCNC(=N)N)NC(=O)[C@H](CO)NC(=O)[C@H](CCCCN)NC(=O)[C@@H]2CCCN2C(=O)[C@H]([C@@H](C)CC)NC(=O)[C@H]([C@@H](C)O)NC(=O)[C@H](CC(=O)O)NC1=O`: the half-inhibitory concentration (IC50) in experiment [1] was found to be 318 pM; in experiment [2] it was 218 pM.
With `CC[C@H](C)[C@@H]1NC(=O)[C@@H](NC(=O)[C@H](CO)NC(=O)[C@@H](N)CCCNC(=N)N)CSSC[C@@H](C(=O)O)NC(=O)[C@H]([C@@H](C)O)NC(=O)CNC(=O)[C@@H]2CSSC[C@@H]3NC(=O)[C@H](CCC(N)=O)NC(=O)[C@H](Cc4ccccc4)NC(=O)[C@H](C)NC(=O)[C@H]([C@@H](C)O)NC(=O)[C@H](CSSC[C@H](NC(=O)[C@H](Cc4ccccc4)NC(=O)[C@H](CO)NC(=O)[C@H](CC(C)C)NC(=O)[C@H](CCCNC(=N)N)NC(=O)[C@H](Cc4ccc(O)cc4)NC(=O)[C@H](CCCCN)NC(=O)[C@H](CCSC)NC(=O)[C@H](CO)NC(=O)[C@H](Cc4cnc[nH]4)NC(=O)[C@H](CCCCN)NC3=O)C(=O)N[C@@H](CCCNC(=N)N)C(=O)N[C@@H](CCCCN)C(=O)N[C@@H]([C@@H](C)O)C(=O)N2)NC(=O)[C@H](CCCCN)NC(=O)[C@H](CO)NC(=O)[C@H](CCCCN)NC(=O)[C@@H]2CCCN2C(=O)[C@H]([C@@H](C)CC)NC(=O)[C@H]([C@@H](C)O)NC(=O)[C@H](CC(=O)O)NC1=O`, the IC50 in experiment [3] amounted to 133 pM; in experiment [1] it was 252 pM; in experiment [2], 95 pM.

The record behind these values is ChEMBL document CHEMBL3608278 (J Med Chem, 2015).
